Measurements published in patent US11773062B2, “Deuterated compounds” (priority 2021, dated 2023).

Assay: Human liver mitochondrial fraction intrinsic clearance of SPL026, SPL028i, SPL028iii, SPL028viii
Assay type: in vitro ADME
Details: 0.5 mg/mL human liver mitochondrial fraction (Table 10)
Source text: Human Liver Mitochondrial (HLMt) fractions contain high quantities of MAO enzymes and therefore, provide a useful tool to measure the clearance of MAO substrates.

Work on `[2H]C([2H])([2H])N(C([2H])([2H])[2H])C([2H])([2H])Cc1c[nH]c2ccccc12` [SPL028viii, α,α,bis-deuterio-N,N-hexadeuterio-dimethyltryptamine] yielded a Half-life of 2.128 h.
